Source: patent publication US20190309056A1 (VIB VZW, published 2019)

B1: anti-MIF ISVD B5 (VHH)
VHH: EVQLVESGGGLVQAGGSLRLSCAASGRSFSNYIMGWFRQAPGKEREFVANISWNYGTTFYADSVKGRFTISGDSAKNTVYLQMTSLKPEDTAVYYCAARPVRGGRNFDYWGQGTQVTVSS
notes: Family I. Expressed from pAX100, purified by IMAC
B2: anti-MIF ISVD D4 (VHH)
VHH: KVQLVESGGGLVQDGGSLRLSCAASGRTASIQVMGWFRQAPGKEREFVGNIGWNYGLTLYPDSVKGRFTISRDNAKNTVYLQMNNLKPEDTAVYYCAARIGTTTYDYWGQGTQVTVSS
notes: Family III; Expressed from pAX100, purified by IMAC
B3: anti-MIF ISVD A2 (VHH)
VHH: EVQLVESGGGLVQDGGSLRLSCAASGRTASIQVMGWFRQAPGKEREFVGNIGWNYGLTLYADPVKGRFTISRDNAKNTVYLQMNNLKPEDTAVYYCAARIGTITYDYWGQGTQVTVSS
notes: as for B2
B4: anti-MIF ISVD D2 (VHH)
VHH: EVQLVESGGGLVQDGGSLRLSCAASGRTASIHTMGWFRQAPGQERGFVGNIGWNYGLTLYADSVKGRFTISRDNAKNTVYLQMNNLKPEDTAVYYCAARIGTTPYDYWGQGTQVTVSS
notes: as for B2
B5: anti-MIF ISVD F10 (VHH)
VHH: EVQLVESGGGLVQDGGSLRLSCAASGRTASIQVMGWFRQAPGKEREFVGNIGWNYGLTLYPDSVKGRFTISRGNAKNAVYLQMNNLKPEDTAVYYCAARIGTTTYDYWGQGTQVTVSS
notes: as for B2
B6: anti-MIF ISVD H5 (VHH)
VHH: EVQLVESGGGLVQPGGSLRLSCVASGFTFRTYAMSWVRQAPGKGSEWVSTINNGGGVTGYADSVEGRFTISRDNAKNTLYLQMNSLKPEDTAVYYCAKGTSRGQGTQVTVSS
notes: Family IV; Expressed from pAX100, purified by IMAC
B7: anti-MIF ISVD E5 (VHH)
VHH: EVQLVESGGGLVHAGGSLRLSCAASGRTFSSYFMGWFRQAPGKAREFVANINFSGGTTVYASSVKGRFTISRDNSKNTVYLQMNSVKPEDTAVYYCVARGLTQDYDYWGQGTQVTVSS
notes: Family V. Expressed from pAX100, purified by IMAC; also called Nb E5
B8: anti-MIF ISVD H9 (VHH)
VHH: EVQLVESGGGLVHAGGSLRLSCAASGRTSSTYFMGWFRQAPGKAREFVANINFSGGTTVYASSVKGRFTISRDNSKNTVYLQLNSVKPEDTAVYYCSARGLNQEYDFWGQGTQVTVSS
notes: Family V. Expressed from pAX100, purified by IMAC
B9: anti-MIF ISVD D12 (VHH)
VHH: EVQLVESGGGLVQAGGSLRLSCAASGRTISSYIVGWFRQAPGKEREFVANIGWSGSMPLYADSVKGRFTIFRDNAKNTVYLEMNKLKPEDTAVYYCAARGAGQLTNDYWGQGTQVTVSS
notes: Family VI; Expressed from pAX100, purified by IMAC
B10: anti-MIF ISVD E10 (VHH)
VHH: EVQLVESGGGSVQAGDSLRLSCAASGRTLSNSIMGWFRQAPGKEREFVANINWSGTSRLYADSVKGRFTISRDNTKSTVYLQMNSLKPEDTAIYYCAARSSTMSATDYWGQGTQVTVSS
notes: Family VII; Monovalent llama VHH expressed in E. coli from pAX100 and purified by IMAC (His-Trap) and gel filtration; also called Nb E10; monovalent E10
B11: E10-E10 (VHH)
chain: EVQLVESGGGSVQAGDSLRLSCAASGRTLSNSIMGWFRQAPGKEREFVANINWSGTSRLYADSVKGRFTISRDNTKSTVYLQMNSLKPEDTAIYYCAARSSTMSATDYWGQGTQVTVSSGGGGSGGGSEVQLVESGGGSVQAGDSLRLSCAASGRTLSNSIMGWFRQAPGKEREFVANINWSGTSRLYADSVKGRFTISRDNTKSTVYLQMNSLKPEDTAIYYCAARSSTMSATDYWGQGTQVTVSS
notes: Single chain, bivalent: two E10 VHH joined by a 9GS linker; Expressed from pAX100; also called bivalent ISVD E10
B12: anti-MIF ISVD C10 (VHH)
VHH: EVQLVESGGGLVQAGGSLRLSCAASGRTSSIVAIGWFRQAPGKEREFVSNIGWKFGSTVYVDSVKGRFTISKDNAKNTVYLQMNSLKPEDTAVYRCAARSDGRVYDSWGQGTQVTVSS
notes: Family II; Expressed from pAX100, purified by IMAC

How the values were obtained:
[1] = target: T1, recombinant human Macrophage Migration Inhibitory Factor (MIF 2-115) (human, UniProt P14174 2-115); test: SPR (BIAcore T200), rhMIF immobilised on CM5 chip, 1:1 Langmuir model
T1 construct: rhMIF bought from R&D Systems; The background describes MIF as a homotrimer but also as monomer, dimer or higher oligomers; In the cell assays (THP-1, human PBMC) the MIF is the cells' own; also called rhMIF; human MIF
Procedure: (§1) Surface plasmon resonance (SPR) experiments were performed on a BIAcore T200 system (GE Healthcare). Recombinant mouse MIF (rmMIF) or rhMIF (R&D systems) was immobilized on a CM5 chip (GE Healthcare). Briefly, the carboxylated dextran matrix was activated by injection of 0.2 M N-ethyl-N′-(3-[…]) carbodiimide (EDC) and 0.05 M N-hydroxysuccinimide (NHS) at a flow rate of 5 μl/min for 7 min. A rmMIF solution of 5 μg/ml prepared in coupling buffer (50 mM sodium acetate pH 4.0) was subsequently injected until 200 R.U. was immobilised. Next, the surface immobilisation was blocked by injection of 1 M ethanolamine hydrochloride for 7 min. As a reference, the surface in another flow cell was used and treated only with EDC, NHS, and ethanolamine. Data for the rmMIF-ISVD interaction were collected in the format of a kinetic titration (27). Sensorgrams for the anti-mMIF ISVDs/ISVD-constructs were collected at five different concentrations (½ serial dilution starting from 100, 150, 200 or 750 nM) plus a 0 concentration (injection of running buffer, i.e. HBS [10 mM Hepes (pH 7.5), 150 mM NaCl, 3.5 mM EDTA, 0.005% (v/v) Tween-20]) at a flow rate of 30 μl/min and a data collection rate of 10 Hz. Analyte injections were performed with association phases of 180 s and a dissociation phase of 600 s. This was followed by 5 pulses of 15 μl regeneration buffer (HBS+100 mM NaOH). Prior to data analysis, reference and zero concentration data were subtracted from the sensorgrams. The data were analyzed with a 1:1 Langmuir binding model (27). Data for the rhMIF-ISVD interaction were collected as described elsewhere (28) and analyzed with a 1:1 Langmuir binding model.

[2] = target: T2, recombinant mouse Macrophage Migration Inhibitory Factor (mouse, UniProt P34884 2-115); test: SPR (BIAcore T200), rmMIF immobilised on CM5 chip, kinetic titration, 1:1 Langmuir model
T2 construct: rmMIF bought from R&D Systems; In the cell assays (RAW264.7, PECs/PEMs) the MIF is the cells' own; also called rmMIF; mouse MIF
Procedure: as §1

[3] = target: T2, recombinant mouse Macrophage Migration …; test: SPR (BIAcore T200), rmMIF immobilised on CM5 chip, kinetic titration, 1:1 Langmuir model; apparent KD (bivalent)
Procedure: as §1, with “Analyte injections were performed with association phases of 180 s and a dissociation phase of 600 s. This was followed by 5 pulses of 15 μl regeneration buffer (HBS+100 mM NaOH). Prior to data analysis, reference and zero concentration data were subtracted from the sensorgrams.” left out

[4] = target: T2, recombinant mouse Macrophage Migration …; test: SPR (BIAcore T200), rmMIF immobilised on CM5 chip, kinetic titration, 1:1 Langmuir model; apparent value (bivalent)
Procedure: as §1, with “Analyte injections were performed with association phases of 180 s and a dissociation phase of 600 s. This was followed by 5 pulses of 15 μl regeneration buffer (HBS+100 mM NaOH). Prior to data analysis, reference and zero concentration data were subtracted from the sensorgrams.” left out

| Binder | koff [1] [s⁻¹] | kon [1] [M⁻¹ s⁻¹] | Kd [2] [nM] | koff [2] [s⁻¹] | kon [2] [M⁻¹ s⁻¹] | Kd [3] [nM] | koff [4] [s⁻¹] | kon [4] [M⁻¹ s⁻¹] |
| --- | --- | --- | --- | --- | --- | --- | --- | --- |
| B1 | 0.00154 | 41000 | 38.2 | 0.00542 | 142000 |  |  |  |
| B2 | 0.00153 | 44000 | 27.7 | 0.00274 | 99000 |  |  |  |
| B3 | 0.00092 | 311000 | 14 | 0.002 | 143000 |  |  |  |
| B4 | 0.00124 | 75000 | 12.5 | 0.00189 | 151000 |  |  |  |
| B5 |  |  | 228 | 0.00434 | 19000 |  |  |  |
| B6 | 0.00048 | 17000 | 25.6 | 0.00297 | 116000 |  |  |  |
| B7 | 0.00074 | 78000 | 11.7 | 0.00191 | 163000 |  |  |  |
| B8 | 0.00257 | 32000 | 33 | 0.00231 | 70000 |  |  |  |
| B9 | 0.00298 | 18000 | 85.9 | 0.00511 | 59000 |  |  |  |
| B10 | 0.00632 | 98000 | 53.1 | 0.00457 | 86000 |  |  |  |
| B11 |  |  |  |  |  | 3.19 | 0.00112 | 351000 |
| B12 | 0.00161 | 38000 | 15.5 | 0.00253 | 163000 |  |  |  |
